From patent US20110160081A1, “FUNCTIONAL COMPLEMENTATION ASSAY FOR DEFINED GPCR OLIGOMERS” (priority 2008, published 2011) come the findings set out here.

The chains behind the UniProt entries cited, without tags or fusion partners. Where a name states a change or a piece, a line headed by the entry shows the natural chain unless it says otherwise. Residues count along the entry.
UniProt P35346, 1-347: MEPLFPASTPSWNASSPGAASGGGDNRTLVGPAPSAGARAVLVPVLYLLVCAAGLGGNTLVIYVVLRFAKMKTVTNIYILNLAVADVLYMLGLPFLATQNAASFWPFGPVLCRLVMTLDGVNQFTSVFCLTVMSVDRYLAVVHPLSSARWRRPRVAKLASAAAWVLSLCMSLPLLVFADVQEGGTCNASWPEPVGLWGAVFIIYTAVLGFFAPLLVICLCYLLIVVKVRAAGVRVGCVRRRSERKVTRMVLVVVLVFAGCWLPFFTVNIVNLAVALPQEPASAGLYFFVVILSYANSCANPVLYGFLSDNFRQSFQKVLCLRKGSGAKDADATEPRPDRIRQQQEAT
UniProt P61278: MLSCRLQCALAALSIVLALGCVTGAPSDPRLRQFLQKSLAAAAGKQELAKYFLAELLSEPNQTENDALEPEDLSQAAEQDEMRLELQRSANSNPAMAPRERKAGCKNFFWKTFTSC

This test concerns the target somatostatin receptor 5 (SSTR5) (human) (UniProt P35346). Put plainly: cell-based or functional assay.

As to “somatostatin (SST) (from UniProt P61278 103-116) (peptide)”, the potency of somatostatin with sulpiride relative to quinpirole, aequorin luminescence, SSTR5 coexpressed with D2R-Gqi5 came to 6 fold.
